For assay [1], the target named is Thymidylate synthase (Escherichia coli, UniProt C3SWJ7). Nature of the assay: Inhibition of Escherichia coli thymidylate synthase.
Assay [2] addresses Thymidylate synthase (Homo sapiens, UniProt P04818).

Chains of the proteins cited; added tags and fusions are not shown. Lines headed by an entry give the natural chain unless they say otherwise; changes in a name come on top.
UniProt C3SWJ7, whole entry: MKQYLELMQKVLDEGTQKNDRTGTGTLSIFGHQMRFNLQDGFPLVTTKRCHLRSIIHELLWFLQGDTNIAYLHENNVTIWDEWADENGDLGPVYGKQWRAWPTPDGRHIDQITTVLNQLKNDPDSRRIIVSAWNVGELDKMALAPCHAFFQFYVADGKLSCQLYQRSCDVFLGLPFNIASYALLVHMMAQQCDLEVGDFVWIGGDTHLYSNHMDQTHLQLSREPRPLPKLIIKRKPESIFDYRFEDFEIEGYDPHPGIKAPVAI
UniProt P04818: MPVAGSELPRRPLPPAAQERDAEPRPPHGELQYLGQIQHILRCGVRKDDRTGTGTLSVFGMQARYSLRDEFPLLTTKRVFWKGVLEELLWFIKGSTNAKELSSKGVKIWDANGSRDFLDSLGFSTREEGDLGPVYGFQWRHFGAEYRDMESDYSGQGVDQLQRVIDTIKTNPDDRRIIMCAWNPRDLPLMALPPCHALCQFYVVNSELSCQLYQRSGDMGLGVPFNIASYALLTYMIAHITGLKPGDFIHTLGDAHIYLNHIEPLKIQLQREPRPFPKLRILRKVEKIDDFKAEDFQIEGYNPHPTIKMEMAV

In the case of `Nc1nc2[nH]cc(CCc3ccc(C(=O)N[C@@H](CCC(=O)O)C(=O)O)cc3)c2c(=O)[nH]1` [PEMETREXED], the concentration for half-maximal inhibition (IC50) came to 76 µM on Thymidylate synthase [1] and 9.5 µM against Thymidylate synthase [2].

These data come from ChEMBL document CHEMBL1149301, “Benzoyl ring halogenated classical 2-amino-6-methyl-3,4-dihydro-4-oxo-5-substituted thiobenzoyl-7H-pyrrolo[2,3-d]pyrimidine antifolates as inhibitors of thymidylate synthase and as antitumor agents” (J Med Chem, 2004).
